# Assay results from PubChem BioAssay AID743261 (The Scripps Research Institute Molecular Screening Center, 2014).
# By UniProt entry, the sequences of proteins in these tests, tags left out.
# UniProt Q01970, whole entry: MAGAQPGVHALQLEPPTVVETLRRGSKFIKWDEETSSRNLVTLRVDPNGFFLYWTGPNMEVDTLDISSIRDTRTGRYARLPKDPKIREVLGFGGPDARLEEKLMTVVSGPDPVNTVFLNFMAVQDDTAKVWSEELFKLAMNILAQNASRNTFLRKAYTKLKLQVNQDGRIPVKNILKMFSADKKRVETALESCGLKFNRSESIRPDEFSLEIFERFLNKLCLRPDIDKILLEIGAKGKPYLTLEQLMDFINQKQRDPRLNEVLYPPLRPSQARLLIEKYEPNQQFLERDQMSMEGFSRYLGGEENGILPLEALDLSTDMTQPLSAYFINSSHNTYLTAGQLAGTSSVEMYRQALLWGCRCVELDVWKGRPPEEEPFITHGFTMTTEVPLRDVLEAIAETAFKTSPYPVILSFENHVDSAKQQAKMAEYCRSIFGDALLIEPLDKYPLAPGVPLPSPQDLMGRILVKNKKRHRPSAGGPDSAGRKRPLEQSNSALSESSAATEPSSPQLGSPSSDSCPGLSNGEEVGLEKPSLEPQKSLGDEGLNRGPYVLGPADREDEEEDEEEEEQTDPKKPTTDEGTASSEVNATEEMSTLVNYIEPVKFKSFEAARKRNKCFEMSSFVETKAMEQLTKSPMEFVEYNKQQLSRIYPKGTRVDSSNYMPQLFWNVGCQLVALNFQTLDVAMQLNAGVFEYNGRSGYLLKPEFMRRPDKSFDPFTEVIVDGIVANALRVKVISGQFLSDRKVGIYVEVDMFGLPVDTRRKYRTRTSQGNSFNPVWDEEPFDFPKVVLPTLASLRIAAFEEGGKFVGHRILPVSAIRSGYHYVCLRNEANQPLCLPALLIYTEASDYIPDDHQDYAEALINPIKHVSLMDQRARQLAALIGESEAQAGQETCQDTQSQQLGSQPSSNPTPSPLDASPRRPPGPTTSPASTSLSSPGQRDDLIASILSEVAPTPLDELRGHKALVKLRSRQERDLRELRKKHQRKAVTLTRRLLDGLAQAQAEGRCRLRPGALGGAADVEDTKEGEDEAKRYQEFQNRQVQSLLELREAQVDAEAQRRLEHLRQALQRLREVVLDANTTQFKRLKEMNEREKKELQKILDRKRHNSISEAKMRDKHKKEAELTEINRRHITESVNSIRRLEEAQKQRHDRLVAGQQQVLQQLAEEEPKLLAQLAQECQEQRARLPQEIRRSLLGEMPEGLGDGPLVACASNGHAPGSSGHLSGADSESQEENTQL
# Only a part is listed here, and it is no random draw. Some results for these compounds are left out of this collection, so the calls shown say nothing about other tests. Activity calls are given as the source filed them. No stated cut-off is given here; in the data, active means inhibition above about 11%; inactive means the rest.
# Target: 1-phosphatidylinositol 4,5-bisphosphate phosphodiesterase beta-3 (Homo sapiens) (UniProt Q01970)
# Test: PLC-beta3 inhibitor confirmation, biochemical, fluorescence, purified enzyme (AID 743261)
# Settings: purified PLC-beta3, fluorogenic substrate fluorescence; at 12.3 µM; stronger effect = higher value
row,Structure (SMILES),inhibition
1,CCN1CCCC(OC(=O)C2(O)c3ccccc3C=Cc3ccccc32)C1 (stereo unspecified),inactive: -0.78%
